Values quoted from earlier work in paper PMC9816206 (Archives of Toxicology, 2022).

Test system: HSEC
Conditions: PAs metabolized by HepaRG human hepatocyte cells in Transwell co-culture; ref Lu et al. [2019]; cited from earlier work

**Q.** With retrorsine as the substance, how does the “cytotoxicity in HSEC” value read?
**A.** concentration-dependent cytotoxicity
